The term IC50 denotes the concentration that inhibits the measured activity by half.

The source of these data is patent US11958812B2, “3, 5-disubstituted pyridine and 3, 5-disubstituted pyridazine derivatives and pharmaceutical use of same” (MITSUBISHI TANABE PHARMA CORPORATION, priority 2018, dated 2024).

For this experiment, the target named is human recombinant ATX (Homo sapiens, UniProt Q13822). Nature of the experiment: Enzyme inhibition test (choline release from LPC, Amplex UltraRed fluorescence). Particulars: read-out: Experimental Example 1 human ATX IC50, 200 μM LPC substrate, 1 hr at room temperature. On the procedure:
[Enzyme Inhibition Test Method]
A mixture (10 μL) of substrate and a set of choline quantification reagents (200 μM LPC (1-Oleoyl-sn-glycero-3-phosphocholine Sigma #L1881), 25 μM Amplex UltraRed reagent (Invitrogen), 0.1 U/mL Peroxidase (TOYOBO), 1 U/mL Choline oxidase (TOYOBO)), prepared with assay buffer (50 mM Tris (pH 8.0), 140 mM NaCl, 5 mM KCl, 1 mM CaCl2, 1 mM MgCl2, 0.1% BSA (Albumin from bovine serum, SIGMA), 0.0025% Triton X-100), enzyme (0.4 ng/μL human recombinant ATX) (10 μL), compound-containing solution (100 nL) were dispensed to a 384-well plate, incubated at room temperature for 1 hr and the fluorescence (Ex. 525 nm/Em. 598 nm) was measured. As the standard, choline chloride was used. With a blank free of enzyme was taken as inhibitory rate 100%, and a control free of inhibitor as inhibitory rate 0%, the inhibitory rate was calculated, and IC50 value was calculated from the inhibitory activity percentage at each concentration.
For the molecule `O=C(O)C1CC1C1CN(c2cncc(OC[C@H]3CC[C@H](C(F)(F)F)CC3)c2)CCO1` (single isomer, unassigned) [Example 19-1], the IC50 is 1 nM.
To `O=C(O)C1CC1C1CN(c2cncc(OC[C@H]3CC[C@H](C(F)(F)F)CC3)c2)CCO1` (single isomer, unassigned) [Example 19-3] belongs 5 nM; to `O=C(O)CCC1CN(c2cncc(CCc3ccc(OC(F)(F)F)cc3)c2)CCO1` (centres unmarked), 1040 nM.
To `O=C(O)C1CC1C1CN(c2cncc(OC[C@H]3CC[C@H](C(F)(F)F)CC3)c2)CCO1` (single isomer, unassigned) [Example 19-2] belongs 31 nM; to `O=C(O)C1CC1C1CN(c2cncc(OC[C@H]3CC[C@H](C(F)(F)F)CC3)c2)CCO1` (single isomer, unassigned) [Example 19-4], 49 nM.
